The values that follow come from PubChem BioAssay (Tox21).

The nature of assay [1]: A CellTox Green Cytotoxicity Assay to monitor cytotoxicity in HepG2 cells - 16 hour (AID 1224876). Note: nearly all actives have a fitted effect of over 45% in size. Note: potency is the fitted concentration of half-maximal effect. The method in brief:
(§1)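 Continuous culture of HepG2 cells with a membrane-impermeant DNA dye; rising fluorescence marks dead cells. Compound exposure lasted up to 40 h at 37 C, with reads every 8 h from 0 h.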

Assay [2] is described as follows: qHTS RealTime-Glo MT Cell Viability Assay in HepG2 cells - 32 hour (AID 1224877). Note: nearly all actives have a fitted effect of over 55% in size. Conditions: RealTime-Glo luminescence. The method in brief: (§2)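 HepG2 suspension premixed with RealTime-Glo reagents is plated at 600 cells per well and left 5 h at 37 C/5% CO2. Compounds in DMSO then go in, and bioluminescence reflecting viable cell number is recorded over 40 h.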
On the technique in general: In qHTS, concentration-response curves come from the screen itself.

Assay [3] in a line: A CellTox Green Cytotoxicity Assay to monitor cytotoxicity in HepG2 cells - 40 hour (AID 1224879). Note: nearly all actives have a fitted effect of over 40% in size. Note: potency is the fitted concentration of half-maximal effect. The method in brief:
as §1

The nature of assay [4]: qHTS RealTime-Glo MT Cell Viability Assay in HEK293 cells - 0 hour (AID 1224880). Note: top concentration of the series differs between compounds; nearly all actives have a fitted effect of over 45% in size. Conditions: RealTime-Glo luminescence. The procedure, abridged: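 qHTS format; HEK293 cells with NanoLuc/prosubstrate reagent, 37 C/5% CO2 for 5 h pre-dosing; compounds 23 nL in DMSO; luminescence at each time point reflects viable cells.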
Assay [5] is described as follows: A CellTox Green Cytotoxicity Assay to monitor cytotoxicity in HEK293 cells - 32 hour (AID 1224881). Note: nearly all actives have a fitted effect of over 40% in size. Note: potency is the fitted concentration of half-maximal effect. The method in brief: (§3)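 Each value comes from one timepoint of a single continuous run in which HEK293 cells with CellTox Green were exposed to compound for up to 40 h at 37 C, dye fluorescence rising with cell death.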
A short description of assay [6]: A CellTox Green Cytotoxicity Assay to monitor cytotoxicity in HepG2 cells - 0 hour (AID 1224882). Note: nearly all actives have a fitted effect of over 35% in size. Note: potency is the fitted concentration of half-maximal effect. The procedure, abridged: as §1
Assay [7] can be described thus: A CellTox Green Cytotoxicity Assay to monitor cytotoxicity in HepG2 cells - 32 hour (AID 1224883). Note: nearly all actives have a fitted effect of over 50% in size. Note: potency is the fitted concentration of half-maximal effect. The procedure, abridged: as §1
Assay [8] in a line: A CellTox Green Cytotoxicity Assay to monitor cytotoxicity in HEK293 cells - 8 hour (AID 1224884). Note: nearly all actives have a fitted effect of over 35% in size. Note: potency is the fitted concentration of half-maximal effect. The procedure, abridged: as §3
A short description of assay [9]: qHTS RealTime-Glo MT Cell Viability Assay in HepG2 cells - 16 hour (AID 1224885). Note: nearly all actives have a fitted effect of over 50% in size. To be noted: RealTime-Glo luminescence. The procedure, abridged: as §2
Assay [10] can be described thus: qHTS RealTime-Glo MT Cell Viability Assay in HEK293 cells - 24 hour (AID 1224886). Note: top concentration of the series differs between compounds; nearly all actives have a fitted effect of over 50% in size. To be noted: RealTime-Glo luminescence. The method in brief: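 Reads taken at 0, 8, 16, 24, 32 and 40 h from the same wells. HEK293 cells (600/well) carried RealTime-Glo reagents from seeding, with compound added after a 5 h settle at 37 C.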
[11] abbreviates: at 76.8 µM (top of the series) unless noted.

“And” between values parts separate entries of the source, which are not always exact repeats. Identical values can stand only once. The entries are a selection whose mix differs from that of the whole data set. Results filed as inconclusive are left out. A structure can be active in one record and inactive in another. The source made the active and inactive calls. Calls come from the whole dose curve; as a rule, active = well fitted curve in the direction sought with a large enough effect in the repeat runs; inconclusive = weak or mixed curves; inactive = no such curve, though single readings can be large; an effect the other way counts as inactive or inconclusive.
% is set by controls: 0 for no effect and ±100 for the full control effect.

As for `N=C(N)N[N+](=O)[O-]`, the Potency result in assay [1], in assay [3], in assay [5], in assay [6], in [7] and in assay [8] was “inactive” each time. The activity change, negative = cytotoxic is inactive: 1.05% in [2] (at 76.8 µM (top of the series)) and inactive: 2% in [9] (setting [11]). For the same molecule, the activity change, negative = cytotoxicity in [4] (setting [11]) is inactive: -12.2%; in [10] (at 76.8 µM (top of the series)), inactive: -5.43%.
For the molecule `OCCSCCO`, the Potency entry in [1], in [3], in assay [5], in [6], in [7] and in [8] was “inactive” throughout. The activity change, negative = cytotoxic was inactive: -0.78% in [2] (at 35.3 µM (top of the series)), inactive: -0.78% in assay [2] (at 76.8 µM (top of the series)), inactive: -22.7% in assay [9] (at 35.3 µM (top of the series)) and inactive: -1.15% in [9] (at 76.8 µM (top of the series)). Moreover, the activity change, negative = cytotoxicity is inactive: 3.61% in assay [4] (at 35.3 µM (top of the series)), inactive: 0.773% in assay [4] (at 76.8 µM (top of the series)), inactive: -1.04% in assay [10] (at 35.3 µM (top of the series)) and inactive: -7.36% in assay [10] (at 76.8 µM (top of the series)).
Turning to `CCOP(=O)(CC)Oc1ccc([N+](=O)[O-])cc1` (stereo not given), the Potency result in [1], in [5], in assay [6] and in assay [8] was “inactive” each time. For the same molecule, the activity change, negative = cytotoxic is inactive: -3.15% in [2] (at 35.3 µM (top of the series)) and inactive: -7.56% [at 35.3 µM] in assay [9] (setting [11]). Besides, the activity change, negative = cytotoxicity in assay [4] (setting [11]) is inactive: 4.14% [at 35.3 µM]; in assay [10] (at 35.3 µM (top of the series)) it was inactive: -7.23%.
Consider `CCN(CC)CCCl`, for which the Potency entry in assay [1], in assay [3], in assay [5], in assay [7] and in assay [8] was “inactive” throughout. Further, the values for the activity change, negative = cytotoxic in [2] (at 76.8 µM (top of the series)) and in assay [9] (setting [11]) were inactive: -1.31% and inactive: 0.404%, respectively. The activity change, negative = cytotoxicity in [4] (setting [11]) was inactive: -2.89%; in [10] (at 76.8 µM (top of the series)), inactive: 8.26%.
Turning to `Cc1ccc([N+](=O)[O-])cc1[N+](=O)[O-]`, the Potency result in [1], in assay [3], in [5], in assay [6], in assay [7] and in assay [8] was “inactive” each time. The activity change, negative = cytotoxicity in assay [4] (setting [11]) was inactive: 2.76% and inactive: 1.21%; in assay [10] (at 76.8 µM (top of the series)), inactive: 1.81% and inactive: 0.0162%.
Consider `O=[N+]([O-])[O-].[NH4+]`, for which the Potency entry in [1] is “inactive and active: 38.9 µM”; in assay [3], “inactive and active: 38.9 µM”; in assay [5], “inactive and active: 38.9 µM”; in assay [6], “inactive and active: 38.9 µM”; in assay [7] it was “inactive and active: 43.6 µM”; in [8], “inactive and active: 38.9 µM”. Besides, the activity change, negative = cytotoxicity is inactive: -3.92% and inactive: 3.36% in [4] (setting [11]); inactive: 0.861% and inactive: 0.564% in [10] (at 76.8 µM (top of the series)). Moreover, in assay [9] (setting [11]), the activity change, negative = cytotoxic was inactive: 1.32% and inactive: 0.868%.
Consider `CCOP(=O)(CC)OCC`, for which the Potency entry in [1], in [3], in assay [5], in [6], in [7] and in assay [8] was “inactive” in each case. For the same molecule, the activity change, negative = cytotoxic was inactive: 0.315% in [2] (at 76.8 µM (top of the series)) and inactive: 1.43% in [9] (setting [11]). Besides, the activity change, negative = cytotoxicity in assay [4] (setting [11]) is inactive: 3.54%; in assay [10] (at 76.8 µM (top of the series)) it was inactive: 5.36%.
On to `COP(C)(=O)OC`, for which the Potency entry in assay [1], in assay [3], in assay [5], in assay [6], in assay [7] and in [8] was “inactive” throughout. The activity change, negative = cytotoxic in [2] (at 76.8 µM (top of the series)) was inactive: 0.711% and inactive: 0.224%; in [9] (setting [11]) it was inactive: -1.09% and inactive: -3.3%. In addition, the activity change, negative = cytotoxicity is inactive: -4.25% and inactive: -1.73% in assay [4] (setting [11]); inactive: 3.54% and inactive: 1.73% in assay [10] (at 76.8 µM (top of the series)).
Turning to `CN(C)CCCl`, the Potency result in assay [1], in assay [3], in [5], in assay [6], in assay [7] and in [8] was “inactive” in each case. The activity change, negative = cytotoxic was inactive: 0.22% in assay [2] (at 76.8 µM (top of the series)) and inactive: 2.42% in assay [9] (setting [11]). Moreover, the activity change, negative = cytotoxicity in assay [4] (setting [11]) was inactive: -3.94%; in [10] (at 76.8 µM (top of the series)), inactive: 4.1%.
For `CC(C)OP(C)(=O)OC(C)C`, the Potency result in assay [1], in assay [3], in assay [5], in assay [6], in assay [7] and in assay [8] was “inactive” in each case. Moreover, the activity change, negative = cytotoxicity in assay [4] (setting [11]) was inactive: -4.09% and inactive: 11.3%; in assay [10] (at 76.8 µM (top of the series)) it was inactive: 11.3%.
Take `O=[N+]([O-])OCC(CO[N+](=O)[O-])(CO[N+](=O)[O-])CO[N+](=O)[O-]`: the Potency entry in [1], in [3], in [5], in assay [6] and in assay [7] was “inactive” throughout. For the same molecule, the activity change, negative = cytotoxic is inactive: -0.023% in [2] (at 76.8 µM (top of the series)) and inactive: 3.63% in assay [9] (setting [11]). The activity change, negative = cytotoxicity in assay [4] (setting [11]) was inactive: 5.93%; in [10] (at 76.8 µM (top of the series)), inactive: 5.84%.
